Literature values as cited in patent publication US9539259B2, “Compounds and methods of use thereof for treating neurodegenerative disorders” (THE JOHNS HOPKINS UNIVERSITY, priority 2012, dated 2017).

Target: T1, DLK (Homo sapiens, UniProt Q12852)
T1 sequence (Q12852 1-859): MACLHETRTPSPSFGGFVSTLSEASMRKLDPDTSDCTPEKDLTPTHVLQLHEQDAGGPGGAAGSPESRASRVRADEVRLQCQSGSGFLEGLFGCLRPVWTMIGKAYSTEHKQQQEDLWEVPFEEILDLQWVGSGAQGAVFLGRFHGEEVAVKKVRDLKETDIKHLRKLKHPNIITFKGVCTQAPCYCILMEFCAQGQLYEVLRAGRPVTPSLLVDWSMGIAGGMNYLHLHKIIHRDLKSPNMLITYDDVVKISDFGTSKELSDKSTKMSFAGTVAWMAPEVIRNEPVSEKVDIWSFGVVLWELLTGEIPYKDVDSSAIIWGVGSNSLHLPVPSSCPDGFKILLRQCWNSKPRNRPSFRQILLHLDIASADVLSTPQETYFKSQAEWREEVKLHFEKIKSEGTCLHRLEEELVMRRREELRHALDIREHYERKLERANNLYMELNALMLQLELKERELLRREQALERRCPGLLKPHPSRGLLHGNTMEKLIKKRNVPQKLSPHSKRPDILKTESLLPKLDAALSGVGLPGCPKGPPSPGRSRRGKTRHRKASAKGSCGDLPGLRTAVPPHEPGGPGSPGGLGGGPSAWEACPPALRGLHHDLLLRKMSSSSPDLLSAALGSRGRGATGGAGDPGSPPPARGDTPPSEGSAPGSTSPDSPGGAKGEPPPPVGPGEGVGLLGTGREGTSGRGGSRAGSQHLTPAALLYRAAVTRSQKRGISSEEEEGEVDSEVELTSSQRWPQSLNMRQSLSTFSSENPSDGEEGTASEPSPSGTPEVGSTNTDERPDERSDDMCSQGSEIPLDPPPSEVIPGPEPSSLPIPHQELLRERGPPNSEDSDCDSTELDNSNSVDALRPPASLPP
Details: published kinase inhibitor profiles; cited from earlier work

## C[C@]12O[C@H](C[C@]1(O)CO)n1c3ccccc3c3c4c(c5c6ccccc6n2c5c31)CNC4=O [lestautinib, lestaurtinib]
  binding to DLK: reported to bind DLK
